TRPM1 prom inh – inhibitors of MITF-dependent TRPM1 promoter reporter, primary screen, cell-based, SK-MEL-5, single point, luciferase. SK-MEL-5 TRPM1 promoter luciferase, 24 h. inhibition, % at 12.5 µM. 330,000 compounds, 0.83% hits;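 active means mean inhibition across replicates of 60% or more, whatever share of single replicates reaches that level; inconclusive means some that reach 60%, reason not given; inactive means mean inhibition across replicates below 60%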
miR-122 sensor – miR-122 Renilla sensor signal increase in Huh7, primary screen, miR-122 inhibitor project, cell-based, single point, plate reader | 340,000 compounds, 0.3% hits | Huh7 miR-122 Renilla luciferase sensor, 48 h; neutral wells = 0, positive control = 100 | activation (reporter increase), % at 12.5 µM;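 active means mean replicate activation score at least 90 and every replicate individually at or above 90; inconclusive means only one of the two criteria met; inactive means neither criterion met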;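 further: higher luciferase means less miR-122 activity so hits act as miR-122 inhibitors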
PGC1a acetyl inh – inhibitors of PGC1a acetylation signal, primary screen, cell-based, U2OS, AlphaScreen, inhibitor mode | AlphaScreen anti-acetyl-lysine; with virally co-expressed GCN5 acetyltransferase | inhibition, % at 15.6 µM | 350,000 compounds, 0.17% hits | AID 651687, 2012;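 active means every replicate shows inhibition of at least 40%; inconclusive means mean inhibition at least 40% but some replicate below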
MITF TRPM1 HTS – activators of MITF-driven TRPM1 promoter reporter, primary screen, cell-based, SK-MEL-5, luciferase, single point | activation, % at 12.5 µM | AID 588334, 2011 | 300,000 compounds, 0.75% hits | SK-MEL-5 TRPM1-promoter luciferase, 24 h; % of positive control, neutral wells = 0;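 active means mean activation of at least 80% with every replicate also reaching 80%; inconclusive means mean reaches 80% but some replicate falls short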
Yeast UUG start – alters start codon recognition fidelity in yeast; S. cerevisiae UUG-firefly luciferase reporter, luminescence/redox ratio; activity score, % at 18.7 µM; actives 0.13% (n = 350,000); AID 602363;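 active = replicate mean at a twofold rise or more, about +100% in these data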;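 also: firefly luciferase made from a UUG start codon reports start codon fidelity; reporter light over untreated wells divided by growth signal over untreated wells; some hits fall short of that in this replicate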
Wnt act – Wnt/beta-catenin pathway activators, primary screen, cell-based, plate reader, single point; Wnt/beta-catenin reporter cell assay, activator; 300,000 compounds, 1.2% hits; activation, % at 9.35 µM; AID 743398, 2014; in the data active means activation above about 30%, passing the limit was not always enough; inconclusive means no clear call, values can overlap the other calls
Hits are given with their value; n = inactive; u = inconclusive; x = not tested or not shown. The list is not random: actives were taken first. Their share in the collection is about 2.1%.

SMILES	TRPM1 prom inh	miR-122 sensor	PGC1a acetyl inh	MITF TRPM1 HTS	Yeast UUG start	Wnt act
O=C(C[C@@H]1CC[C@H]2[C@@H](COC[C@@H](O)CN2Cc2cccc(Cl)c2)O1)NCc1cccc(F)c1	x	n	n	x	n	x
Oc1[nH]c(=S)sc1C=C1N=c2ccccc2=N1	n	n	n	x	n	41.8
Oc1c(C=C2N=c3ccccc3=N2)sc(=S)n1-c1ccc(F)cc1	n	n	n	n	n	n
CC(=O)Nc1c(-c2ccc3ccccc3c2)nc2ccccn12	n	n	n	82.3	n	n
COc1cccc(S(=O)(=O)N[C@@H]2C=C[C@H](CC(=O)NCc3ccccc3)O[C@@H]2CO)c1	x	x	n	x	x	x
N/C(=N\OC(=O)c1ccc2c(c1)OCO2)c1ccc(Cl)cc1	n	n	n	106.1	n	n
Cc1ccc(/C(N)=N/OC(=O)c2ccc3c(c2)OCO3)cc1	n	x	x	n	x	n
COc1ccc(/C(N)=N/OC(=O)c2ccc3c(c2)OCO3)cc1	n	x	x	n	x	x
N/C(=N\OC(=O)c1ccc2c(c1)OCO2)c1ccncc1	n	n	n	n	n	55.1
C[C@H](CO)N1C[C@H](C)[C@H](CN(C)CC2CCCCC2)Oc2c(NC(=O)Nc3cccc4ccccc34)cccc2C1=O	x	n	n	x	n	x
CC(C)(C)c1csc(N/N=C/c2ccc(O)cc2)n1	n	n	n	97.3	n	n
Cc1ccccc1/C=N/Nc1ccnc2cc(Cl)ccc12	68.0	x	x	n	n	n
Cc1ccc(/C=N/Nc2ccnc3cc(Cl)ccc23)c(C)c1	86.8	x	x	n	n	n
CCOC(=O)Cc1csc(NC(=O)c2ccc(S(=O)(=O)N(CCOC)CCOC)cc2)n1	n	x	x	n	x	37.2
COC(=O)C[C@@H]1CC[C@@H]2[C@@H](COc3ccc(NC(=O)NCc4ccccc4)cc3C(=O)N2C)O1	x	n	n	x	n	x
COc1ccc(N2CCN(c3ccc(NC(=O)/C=C\C(=O)O)cc3)CC2)cc1	n	n	n	n	n	45.2
COc1ccc(/C=C/C(=O)Nc2ccc(N3CCOCC3)cc2)cc1	n	x	x	n	x	x
Cc1ccc(S(=O)(=O)NCc2ccco2)c(C)c1C	n	107.3	n	n	n	n
O=C(C1CCC1)N1CCc2cc(S(=O)(=O)NCc3ccco3)ccc21	n	176.7	n	n	n	x
Cc1ccc2ccc(S(=O)(=O)NCc3ccco3)cc2c1	n	n	n	n	n	n
O=S(=O)(NCc1ccco1)c1ccc2ccccc2c1	n	95.2	x	n	n	n
COCC(=O)N(C)C[C@H]1Oc2ncc(-c3ccc(C#N)cc3)cc2C(=O)N([C@@H](C)CO)C[C@@H]1C	x	n	n	x	n	x
CCC(=O)Nc1ccc2c(c1)C(=O)N(C)C[C@H](OC)[C@@H](C)CN(Cc1ccccc1C(=O)O)[C@H](C)CO2	x	x	n	x	n	x
CC(=O)Cn1ncc(Br)c(Br)c1=O	99.3	n	x	n	n	n
CC(C)(C)C(=O)Cn1ncc(N2CCCC2)c(Br)c1=O	n	n	n	u	n	n
SMILES	TRPM1 prom inh	miR-122 sensor	PGC1a acetyl inh	MITF TRPM1 HTS	Yeast UUG start	Wnt act
CCOc1ccc(-n2c(COc3ccc(C)cc3)nnc2SCC(N)=O)cc1	n	n	n	x	n	71.2
Cc1cc(NC(c2ccc(Cl)cc2)c2ccc3cccnc3c2O)no1 (stereo not given)	77.6	n	n	n	n	n
Oc1c(C(Nc2ccccn2)c2ccccn2)ccc2cccnc12 (stereo not given)	70.7	n	n	n	n	76.2
Cc1ccc2ccc(C(Nc3ccccn3)c3ccccc3)c(O)c2n1 (stereo not given)	x	n	n	x	n	n
O=c1c2cccnc2n(-c2ccccc2)n1Cc1c(Cl)cccc1Cl	n	x	n	n	x	n
O=c1c2cccnc2n(-c2ccccc2)n1Cc1ccc(Cl)cc1	n	n	101.0	n	x	n
CC(C)OC(=O)N(C)C[C@@H]1OCc2ccccc2-c2ccccc2C(=O)N([C@H](C)CO)C[C@H]1C	x	x	n	x	x	x
Oc1c(C(c2ccccn2)N2CCCCC2)cc(Cl)c2cccnc12 (stereo not given)	n	n	n	n	n	58.8
O=C(Nc1ccc(N2CCN(C(=O)c3ccccc3)CC2)cc1)c1ccc([N+](=O)[O-])o1	91.1	x	n	n	x	n
O=C(Nc1ccccc1N1CCN(C(=O)c2ccc(Cl)cc2)CC1)c1ccc([N+](=O)[O-])o1	86.8	n	n	n	n	x
Cc1ccccc1C(=O)N1CCN(c2ccc(NC(=O)c3ccc([N+](=O)[O-])o3)cc2)CC1	80.5	n	x	n	n	n
CC(C)C#Cc1cnc2c(c1)C(=O)N([C@@H](C)CO)C[C@@H](C)[C@H](CN(C)Cc1cncnc1)O2	x	n	n	x	x	x
C[C@H]1CN([C@@H](C)CO)C(=O)c2cc(-c3ccc(F)cc3)cnc2O[C@H]1CN(C)C(=O)c1ccc(F)cc1	x	n	n	x	n	x
COc1ccc2c3c(n(C)c2c1)[C@H](CO)N(C(=O)NC(C)C)CC31CCN(CC2CCCCC2)CC1	x	x	n	x	x	x
O=c1cc(CSc2ccc(Cl)cc2)nc(-c2ccccn2)[nH]1	67.4	x	x	n	n	n
CCCNC1=C(N(C(C)=O)c2cccc(F)c2)C(=O)c2ccccc2C1=O	98.4	n	n	n	n	n
CCC(=O)N(C1=C(NC(C)C)C(=O)c2ccccc2C1=O)C(C)C	n	n	x	n	n	n
CCOC(=O)c1c(C)n(-c2ccc(C)cc2)c2ccc(OCC(O)CNCCCO)cc12 (stereo not given)	70.1	x	n	n	x	n
CCOC(=O)c1c(C)n(-c2ccc(C)cc2)c2ccc(OCC(O)CNCC3CCCO3)cc12 (stereo not given)	69.4	x	n	n	x	x
Cc1cc(NCCN2CCOCC2)c2ccc3ccccc3c2n1	n	x	x	n	x	57.1
COc1cccc(C(=O)Nc2ccc3c(c2)C(=O)N(C)C[C@H](OC)[C@@H](C)CN(CC2CC2)[C@H](C)CO3)c1	x	x	n	x	n	x
CO[C@H](CN(C)C(=O)C1CCOCC1)[C@@H](C)CN(C(=O)Nc1ccc(F)cc1)[C@@H](C)CO	x	x	n	x	x	x
Cc1ccc(NC(=O)c2snc3ccc(Cl)cc23)cc1C	n	x	x	n	x	48.5
COc1ccc(CN(C)C[C@@H]2Oc3ccc(NC(=O)Cn4cnnn4)cc3CC(=O)N([C@H](C)CO)C[C@@H]2C)cc1	x	n	n	x	n	x
NS(=O)(=O)c1ccc(CCNC(=O)c2cccc3ccccc23)cc1	n	x	x	n	n	n
NS(=O)(=O)c1ccc(CCNC(=O)c2ccccc2Cc2ccccc2)cc1	n	n	x	n	n	30.8
N#C/C(N=Nc1ccccc1O)=N\Nc1ccccc1O	69.1	n	n	n	n	n
Oc1ccccc1N=N/C(=N/Nc1ccccc1O)c1ccccc1	n	n	x	n	n	n
